Only a part is listed here, and it is no random draw. Some salts and complexes are drawn in separate pieces, as the source files them; their charges need not balance. Calls of active or inactive are those of the source.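 How the source made its calls: active means inhibition above a per-campaign cutoff, the mean of all compounds plus 3 SD (cut at about 60% in these data); inactive means the rest.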

The chains behind the UniProt entries cited, without tags or fusion partners.
UniProt Q9Y6Q9, whole entry: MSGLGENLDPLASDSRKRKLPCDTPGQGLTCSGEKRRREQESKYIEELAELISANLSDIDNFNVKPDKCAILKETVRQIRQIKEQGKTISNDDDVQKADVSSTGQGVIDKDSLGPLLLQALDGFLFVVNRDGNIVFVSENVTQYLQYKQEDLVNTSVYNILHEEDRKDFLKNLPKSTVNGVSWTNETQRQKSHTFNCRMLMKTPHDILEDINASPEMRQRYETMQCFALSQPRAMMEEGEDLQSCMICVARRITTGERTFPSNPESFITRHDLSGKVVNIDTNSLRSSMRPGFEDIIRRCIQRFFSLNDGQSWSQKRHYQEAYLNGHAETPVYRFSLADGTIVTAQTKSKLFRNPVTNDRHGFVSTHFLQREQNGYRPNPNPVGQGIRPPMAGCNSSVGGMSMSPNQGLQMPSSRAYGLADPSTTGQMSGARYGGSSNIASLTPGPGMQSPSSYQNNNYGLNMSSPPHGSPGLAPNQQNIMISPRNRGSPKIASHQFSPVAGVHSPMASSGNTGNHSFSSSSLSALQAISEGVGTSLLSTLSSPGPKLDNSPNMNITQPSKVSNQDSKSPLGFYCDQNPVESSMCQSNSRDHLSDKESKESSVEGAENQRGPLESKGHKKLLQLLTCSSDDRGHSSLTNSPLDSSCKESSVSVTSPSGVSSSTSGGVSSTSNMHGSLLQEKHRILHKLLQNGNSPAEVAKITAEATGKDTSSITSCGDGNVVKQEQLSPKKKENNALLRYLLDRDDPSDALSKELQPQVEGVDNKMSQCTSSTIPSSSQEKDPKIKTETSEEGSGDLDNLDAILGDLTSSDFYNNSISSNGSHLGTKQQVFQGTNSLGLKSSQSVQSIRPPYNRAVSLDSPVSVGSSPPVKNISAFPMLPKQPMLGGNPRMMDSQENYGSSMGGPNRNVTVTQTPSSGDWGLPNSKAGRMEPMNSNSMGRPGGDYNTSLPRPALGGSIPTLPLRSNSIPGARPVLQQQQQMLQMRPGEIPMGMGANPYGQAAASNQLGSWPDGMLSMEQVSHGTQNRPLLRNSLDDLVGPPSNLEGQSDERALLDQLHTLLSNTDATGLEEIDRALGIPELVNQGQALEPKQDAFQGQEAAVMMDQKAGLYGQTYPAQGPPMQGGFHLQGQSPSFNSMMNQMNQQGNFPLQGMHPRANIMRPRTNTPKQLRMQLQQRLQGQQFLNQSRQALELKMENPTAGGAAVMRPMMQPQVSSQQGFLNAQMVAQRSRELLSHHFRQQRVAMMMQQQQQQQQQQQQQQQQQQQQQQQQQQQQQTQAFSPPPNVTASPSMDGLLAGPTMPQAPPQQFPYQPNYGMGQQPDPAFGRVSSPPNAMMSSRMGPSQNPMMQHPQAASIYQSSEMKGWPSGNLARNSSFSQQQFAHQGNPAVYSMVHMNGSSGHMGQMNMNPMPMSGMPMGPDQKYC

This assay has as its target Nuclear receptor coactivator 3 (Homo sapiens) (UniProt Q9Y6Q9). Nature of the assay: SRC3 coactivator transcriptional activity inhibitors, primary screen, cell-based, luminescence (AID 588352).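 Further: 0% = DMSO-treated cells and 100% = gossypol-treated cells at 36 µM; higher means less SRC3-driven luciferase light from the GAL4 reporter.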 To be noted: HEK293 GAL4-SRC3 luciferase reporter, at 3.6 µM, active compounds read high.
For the compound `O=[N+]([O-])c1cc([N+](=O)[O-])c(Nc2ccc(Cl)cc2)c([N+](=O)[O-])c1`, the inhibition (commonly the relative decrease from the control value, in per cent) is inactive: -28.6%.
Take `CP(=O)(Nc1ccccc1F)Oc1ccccc1` (stereo not given): the inhibition was inactive: 13.3%.
Regarding `CC(C)c1ccc(OP(C)(=O)Nc2ccc(SC(F)(F)F)cc2)cc1` (stereo not given), the inhibition was inactive: 12.7%.
With `O=C(OC1CN2CCC1CC2)c1ccc([N+](=O)[O-])cc1` (stereo not given), the inhibition is inactive: -2.23%.
Regarding `O=C(OCCN1CCN(CCOCc2ccccc2)CC1)C(O)(c1ccccc1)c1ccccc1`, the inhibition was inactive: 17.6%.
Under `COc1ccc2c(c1O)-c1c(O)c(OC)cc3c1[C@H](C2)[N+](C)(C)CC3.O=[N+]([O-])c1cc([N+](=O)[O-])c([O-])c([N+](=O)[O-])c1[O-]` stands inactive: -5%; under `CCOC(=O)c1ccc(NP(C)(=O)Oc2ccc(F)cc2)cc1` (stereo not given), inactive: 0.75%; under `COc1ccc(OP(C)(=O)Nc2ccc(SC(F)(F)F)cc2)cc1` (stereo not given), inactive: 14.1%.
Consider `Cc1c([N+](=O)[O-])cc([N+](=O)[O-])c(Br)c1[N+](=O)[O-]`, for which the inhibition was inactive: -23.1%.
Under `CCN(CC)CCCOC(=O)C(O)(c1ccccc1)C1CCCCC1` (stereo not given) stands inactive: 4%.
Under `CP(=O)(Nc1ccccc1)Oc1ccc(F)cc1` (stereo not given) stands inactive: -1.57%; under `O=[N+]([O-])c1cc([N+](=O)[O-])c(OC2CCCCC2O)c([N+](=O)[O-])c1` (stereo not given), inactive: -24.9%; under `CCCCCOc1ccc(NP(C)(=O)Oc2ccc(Cl)cc2Cl)cc1` (stereo not given), inactive: 6.04%.
Under `COc1ccc(OP(C)(=O)Nc2cccc(Br)c2)cc1` (stereo not given) stands inactive: 8.71%; under `CN(C)CCOC(=O)C(O)(c1ccccc1)C1CCCCC1` (stereo not given), inactive: -13.5%.
As to `COc1ccc(NP(C)(=O)Oc2ccccc2OC)cc1` (stereo not given), the inhibition is inactive: 15.6%.
Under `O=[N+]([O-])c1ccc(OP2(=O)COCCO2)cc1` (stereo not given) stands inactive: -9.68%; under `Cc1cc(-c2cccc3ccccc23)c(C)cn1.O=[N+]([O-])c1cc([N+](=O)[O-])c(O)c([N+](=O)[O-])c1`, inactive: 0.51%.
As to `O=[N+]([O-])c1cc([N+](=O)[O-])c(NCC2CCS(=O)(=O)C2)c([N+](=O)[O-])c1` (stereo not given), the inhibition is inactive: -11.4%.
In the case of `Cc1c(C(c2ccc3c(c2)OCO3)c2c(C)n(C)n(-c3ccccc3)c2=O)c(=O)n(-c2ccccc2)n1C.O=[N+]([O-])c1cc([N+](=O)[O-])c(O)c([N+](=O)[O-])c1` it was inactive: 13.8%; in that of `CP(=O)(Nc1ccc(SC(F)(F)F)cc1)Oc1ccc(F)cc1` (stereo not given), inactive: 14.9%.
Under `CCOP(C)(=S)SCC(=O)NC(C)(CC)C(=O)O` (stereo not given) stands inactive: -10.5%.
Under `CP(=O)(Nc1ccc2c(c1)OCCO2)Oc1ccccc1` (stereo not given) stands inactive: 13.5%; under `Cc1ccccc1NP(C)(=O)Nc1ccccc1C`, inactive: 13.3%.
For the compound `COc1ccc(OP(C)(=O)Nc2ccc(Br)cc2)cc1` (stereo not given), the inhibition is inactive: 17.8%.
Regarding `CCN(CC)CC(O)COC(=O)C(O)(c1ccccc1)C1CCCCC1` (stereo not given), the inhibition was inactive: 17.6%.
In the case of `O=C(OCCCN1CCCC1)C(O)(c1ccccc1)C1CCCCC1` (stereo not given) it was inactive: 9.65%; in that of `COc1ccccc1OP(C)(=O)Nc1c(C)n(C)n(-c2ccccc2)c1=O` (stereo not given), inactive: 0.87%; in that of `CCc1ccc(OP(C)(=O)Nc2cccnc2)cc1` (stereo not given), inactive: 8.79%.
Under `CP(=O)(Oc1ccccc1)N1CCOC1=O` (stereo not given) stands inactive: -3.2%; under `CC(C)(C)c1ccc(OP(C)(=O)O)cc1`, inactive: 3.89%.
Under `COc1ccccc1OP(C)(=O)Nc1ccccc1Br` (stereo not given) stands inactive: 6.49%; under `CP(=O)(Nc1ccc(Cl)cc1)Oc1ccc(F)cc1` (stereo not given), inactive: 15.1%; under `CN(C)C(=O)c1c([N+](=O)[O-])cc([N+](=O)[O-])cc1[N+](=O)[O-]`, inactive: 6.34%.
`CCOC(=O)c1ccc(NP(C)(=O)Oc2ccc(Cl)cc2)cc1` (stereo not given): the inhibition is inactive: -0.39%.
In the case of `CP(=O)(OC12CC3CC(CC(C3)C1)C2)OC12CC3CC(CC(C3)C1)C2` it was inactive: 12.1%.
`Cc1cc(C)cc(OP(C)(=O)Nc2cccc(C(F)(F)F)c2)c1` (stereo not given): the inhibition was inactive: 7.57%.
In the case of `O=C1C(O)=C([N+](=O)[O-])C(=O)C(O)=C1[N+](=O)[O-]` it was inactive: -4.47%; in that of `COc1ccccc1OP(C)(=O)Nc1ccc(C)c(C)c1` (stereo not given), inactive: 5.49%; in that of `COc1ccc(OP(C)(=O)Nc2ccccc2Br)cc1` (stereo not given), inactive: -19.6%.
In the case of `CP(=O)(OCCOc1ccccc1)OCCOc1ccccc1` it was inactive: 14.5%; in that of `CP(=O)(Nc1ccc(Cl)cc1Cl)Oc1ccccc1` (stereo not given), inactive: 25.2%; in that of `CCCCCCCCCCCCCCCC1C[N+](C)(C)CCOP(C)(=O)O1` (stereo not given), inactive: -14.2%.
In the case of `COc1ccccc1OP(C)(=O)Nc1ccc(Br)cc1` (stereo not given) it was inactive: -12.3%.
As to `COc1ccc(OP(C)(=O)Nc2ccccn2)cc1` (stereo not given), the inhibition is inactive: -9.68%.
In the case of `CN(C)CCOC(=O)C(O)(c1ccccc1)C1CCCC1` (stereo not given) it was inactive: 10.2%; in that of `O=[N+]([O-])c1cc([N+](=O)[O-])c(Nc2ccccn2)c([N+](=O)[O-])c1`, inactive: 0.92%; in that of `Cc1c(NP(C)(=O)Oc2ccc(C(C)C)cc2)c(=O)n(-c2ccccc2)n1C` (stereo not given), inactive: 6.83%.
In the case of `COc1ccccc1OP(C)(=O)Nc1ccc(C)cc1C` (stereo not given) it was inactive: 2.15%.
In the case of `CP(=O)(Nc1ccccn1)Oc1ccccc1` (stereo not given) it was inactive: 7.49%; in that of `CCc1ccc(OP(C)(=O)O)cc1`, inactive: 6.06%; in that of `CCN(CC)CCCOC(=O)C(O)(c1ccccc1)c1ccccc1`, inactive: 4.53%.
As to `O=[N+]([O-])c1cc([N+](=O)[O-])c(Nc2cccnc2)c([N+](=O)[O-])c1`, the inhibition is inactive: 0.92%.
For `O=[N+]([O-])c1ccc2c(c1)C=Nc1ccccc1O2`, the inhibition is inactive: 22.7%.
Under `Cc1cccc(C)c1OP(C)(N)=O` (stereo not given) stands inactive: 10.7%.
In the case of `CC(C)(C)c1ccc(OP(C)(=O)Nc2ccc(SC(F)(F)F)cc2)cc1` (stereo not given) it was inactive: 28.1%; in that of `Cc1ccc(NP(C)(=O)Oc2ccccc2)c(C)c1` (stereo not given), inactive: 5.93%.
Take `COc1ccccc1OP(C)(=O)Nc1ccc(C)cc1` (stereo not given): the inhibition is inactive: 11.4%.
Under `CCOC(=O)c1ccc(NP(C)(=O)Oc2ccccc2)cc1` (stereo not given) stands inactive: 28.8%; under `Cc1cc(C)cc(OP(C)(N)=O)c1` (stereo not given), inactive: 8.34%.
Under `COc1ccc(OP(C)(=O)Nc2cccc(F)c2)cc1` (stereo not given) stands inactive: -12%; under `COc1ccccc1OP(C)(=O)Nc1cc(Cl)ccc1C` (stereo not given), inactive: 6.84%.
In the case of `CP(=S)(Nn1cnnc1)Oc1ccccc1` (stereo not given) it was inactive: -1.88%; in that of `CP(=O)(Nc1ccccc1Br)Oc1ccccc1` (stereo not given), inactive: -6.14%; in that of `COc1ccccc1OP(C)(=O)Nc1ccccc1` (stereo not given), inactive: 6.69%.
For `CP(=O)(Oc1ccccc1)OC(c1ccccc1)C(F)(F)F` (stereo not given), the inhibition is inactive: 3.3%.
As to `CP(=O)(Nc1ccc(SC(F)(F)F)cc1)Oc1ccc(Cl)cc1` (stereo not given), the inhibition was inactive: 7.72%.
In the case of `Cc1ccc(Nc2c([N+](=O)[O-])cc([N+](=O)[O-])cc2[N+](=O)[O-])cc1` it was inactive: -5.26%.
Take `Cc1cccc(C)c1OP(C)(=O)Nc1ccc(SC(F)(F)F)cc1` (stereo not given): the inhibition is inactive: -26.8%.
For `Cc1cc(C)cc(OP(C)(=O)Nc2ccc(SC(F)(F)F)cc2)c1` (stereo not given), the inhibition was inactive: 12.9%.
In the case of `CCc1ccc(OP(C)(=O)N2CCN(c3ccc([N+](=O)[O-])cc3)CC2)cc1` (stereo not given) it was inactive: 8.29%.
Regarding `CP(=O)(NC(=O)Nc1ccccc1)Oc1ccccc1` (stereo not given), the inhibition was inactive: -4.61%.
In the case of `O=[N+]([O-])c1cc([N+](=O)[O-])c(O)c([N+](=O)[O-])c1.c1ccc(Oc2ccncc2)cc1`, the inhibition was inactive: 12.8%.
Under `CCOC(=O)c1ccc(NP(C)(=O)Oc2ccc(OC)cc2)cc1` (stereo not given) stands inactive: 9.96%.
Consider `CCOP(C)(=S)SCC(=O)NC(C)C(=O)O` (stereo not given), for which the inhibition is inactive: -12.1%.
For `CP(=O)(Nc1ccccn1)Oc1ccc(Cl)cc1` (stereo not given), the inhibition is inactive: 17.8%.
Under `O=[N+]([O-])c1cc([N+](=O)[O-])c(-n2nnc3ccccc32)c([N+](=O)[O-])c1` stands inactive: 13.6%; under `CN(Cc1cccnc1)C(=O)COc1ccc(Cl)c(Cl)c1.O=[N+]([O-])c1cc([N+](=O)[O-])c(O)c([N+](=O)[O-])c1`, inactive: 11.4%; under `O=[N+]([O-])c1cc([N+](=O)[O-])c(-c2cnn(-c3ccccc3)c2)c([N+](=O)[O-])c1`, inactive: 12.2%.
Turning to `Cc1nc2ccc3ccccc3c2s1.O=[N+]([O-])c1cc([N+](=O)[O-])c(O)c([N+](=O)[O-])c1`, the inhibition was inactive: -6.35%.
For `CCOC(=O)C(CC)C1=NC(C)(C)Cc2ccccc21.O=[N+]([O-])c1cc([N+](=O)[O-])c(O)c([N+](=O)[O-])c1` (stereo not given), the inhibition was inactive: -7.64%.
Under `O=[N+]([O-])c1cc([N+](=O)[O-])c(Nc2nnnn2CCO)c([N+](=O)[O-])c1` stands inactive: -19.6%; under `CC1=C2N=C(C=C3N=C(C(C)=C4[N-][C@@](C)([C@@H]5N=C1[C@](C)(CCC(=O)NC[C@@H](C)OP(=O)([O-])O[C@H]1[C@@H](O)[C@@H](n6cnc7cc(C)c(C)cc76)O[C@@H]1CO)[C@H]5CC(N)=O)[C@@](C)(CC(N)=O)[C@@H]4CCC(N)=O)[C@@](C)(CC(N)=O)[C@@H]3CCC(N)=O)C(C)(C)[C@@H]2CCC(N)=O.[C-]#N.[Co+3]`, inactive: -7.96%.
With `CN1CCCCC1COC(=O)C1(O)c2ccccc2CCc2ccccc21` (stereo not given), the inhibition is inactive: 0.47%.
On to `COc1ccccc1OP(C)(=O)Nc1c(C)cccc1C` (stereo not given), for which the inhibition is inactive: -17.1%.
Under `CP(=O)(Nc1ccc(SC(F)(F)F)cc1)Oc1ccccc1` (stereo not given) stands inactive: 15.8%.
As to `CCCOc1ccc(NP(C)(=O)Oc2ccc(Cl)cc2)cc1` (stereo not given), the inhibition was inactive: 2.28%.
In the case of `O=C(O)c1cccc(Nc2c([N+](=O)[O-])cc([N+](=O)[O-])cc2[N+](=O)[O-])c1` it was inactive: -1.27%; in that of `CC1=NCCc2c1[nH]c1ccccc21.O=[N+]([O-])c1cc([N+](=O)[O-])c(O)c([N+](=O)[O-])c1`, inactive: 0.85%.
With `COc1ccccc1OP(C)(=O)Nc1cccc(Br)c1` (stereo not given), the inhibition was inactive: 14.2%.
In the case of `CCOC(=O)c1ccc(NP(C)(=O)Oc2cc(C)cc(C)c2)cc1` (stereo not given) it was inactive: 4.19%; in that of `Cc1cc(C)cc(OP(C)(=O)Nc2ccc(C)cc2C)c1` (stereo not given), inactive: 12.6%; in that of `Cc1ccc(C)c(NP(C)(=O)Oc2ccccc2)c1` (stereo not given), inactive: -2.56%.
Consider `CP(=O)(Nc1cccc(Br)c1)Oc1ccccc1` (stereo not given), for which the inhibition is inactive: 15.6%.
In the case of `Cc1cc(C)cc(OP(C)(=O)Nc2ccccn2)c1` (stereo not given), the inhibition is inactive: 2.64%.

Source of the values: PubChem BioAssay AID588352 (The Scripps Research Institute Molecular Screening Center, 2011).
